{
  "source": "patent US11000516B2",
  "about": "“Dosing regimens of celgosivir for the prevention of dengue” (priority 2015, dated 2021)",
  "key": {"[1]": {"system": "clinical DENV strains from CELADEN trial patients (8 DENV1, 8 DENV2)", "assay": "16 clinical DENV strains from CELADEN patients in HuH-7 cells, sensitivity versus control strains", "type": "cell-based", "experimental": "(A) Total 16 clinical DENV strains from CELADEN trial (8 from either DENV1 or DENV2 infected patients) were used for infection in HuH-7 cells in the absence or presence of celgosivir at the concentration of 3 μM. EDEN1, EDEN2 and S221 were used as control virus strains. The MOI of each strain was indicated in supplementary FIG. 2. After 48 hours pi, virus titer in the supernatants was determined by standard plaque assay using BHK-21 cells. The percentages of virus titer were calculated based on virus infection control of each strain. Error bars indicate standard deviations from duplicate experiments. (B and C) Mice were inoculated i.v. with DENV2 strains, #031 (2×10^7 pfu), #013 (1×10^7 pfu) or #036 (2×10^7 pfu). […] Average viral copy numbers on day 1-2 were measured using mixed serum of each group. Viral copy number on day 3 was measured individually and the graphs show the average results with standard deviations. […] Viral copy number on day 3-6 was measured individually and shown in the graphs as the average results with standard deviations. […]\nTotal 16 clinical DENV virus were recovered from serum of CELADEN trial patients with 8 of either DENV1 or DENV2 infection. […] After 48 hours post-infection, virus titer in the supernatants was determined by standard plaque assay using BHK-21 cells. […]"}, "EDEN1": {"system": "EDEN1", "assay": "Lethal ADE infection model in AG129 mice (4G2 Ab pre-injection)", "type": "in vivo", "conditions": "EDEN1, 50 mg/kg BID orally from time of infection", "experimental": "(§1) AG129 mice were inoculated i.v. with EDEN1 (7×10^7 pfu), EDEN2 (1×10^8 pfu) or S221 (2×10^4 pfu) for non-lethal infection. For the ADE infection (lethal), mice were pre-injected i.p. with 50 μg (for EDEN1 and EDEN2) or 10 μg (for S221) 4G2 Ab one day prior to infection. (A) Mouse survival rate was monitored by day 10 pi. (B) Blood samples were collected on days 1-8 pi and mixed serum from each group were subjected to real-time RT-PCR to obtain the average viral genome copy numbers. (C) Serum levels of TNFα and IL-6 were measured by ELISA assay. The numbers of mice per group are 6 (EDEN1) or 5 (EDEN2 and S221).\n(§2) AG129 mice were pre-injected i.p. with 50 μg (for EDEN1 and EDEN2) or 10 μg (for S221) 4G2 Ab followed by next day inoculation i.v. with EDEN1 (7×10^7 pfu), EDEN2 (1×10^8 pfu) or S221 (2×10^4 pfu). […] (A) Mouse survival rate was monitored by day 10 pi. (B) Blood samples were collected on day 1-4 pi and mixed serum from each group were subjected to real-time RT PCR to obtain the average viral genome copy numbers (left panels). […] A P value less than 0.05 was considered significant (*P<0.05). The number of mice per group is 5.\n(§3) AG129 mice were pre-injected i.p. with 4G2 Ab followed by next day inoculation i.v. with EDEN1, EDEN2 or S221 as described above. […] (A) Mouse survival rate was monitored by day 10 pi. […]"}, "EDEN2": {"system": "EDEN2", "assay": "Lethal ADE infection model in AG129 mice (4G2 Ab pre-injection)", "type": "in vivo", "conditions": "EDEN2, 50 mg/kg BID orally from time of infection", "experimental": "as §1, §2, §3"}},
  "data": [
    {"smiles": "CCCC(=O)O[C@H]1CN2CC[C@H](O)[C@@H]2[C@@H](O)[C@@H]1O", "note": "[celgosivir]", "values": [
      {"measurement": "sensitivity to celgosivir relative to control strains", "setting": "[1]; all other 15 CELADEN strains, HuH-7, celgosivir 3 mM", "value": "better sensitivity than EDEN1 or S221"},
      {"measurement": "sensitivity to celgosivir relative to control strains", "setting": "[1]; strain DENV1 #025, HuH-7, celgosivir 3 mM", "value": "less sensitive to celgosivir than EDEN1"},
      {"measurement": "protection from lethal infection (survival)", "setting": "EDEN1", "value": "completely protected mice from lethal infection"},
      {"measurement": "protection from lethal infection (survival)", "setting": "EDEN2", "value": "completely protected mice from lethal infection"}
    ]}
  ]
}
